Experimental data reported in US12331334B2.

How the values were obtained:
[1] = target: Glu-plasminogen (Homo sapiens (Human)) (UniProt P00747)
[2] = target: human complement protein C3 (human)
[3] = target: Lys-plasminogen (Homo sapiens (Human)) (UniProt P00747)
[4] = target: human C3 FRET peptide
[5] = target: human complement protein C3 (human); remark: listed apart in the source
[6] = target: human C3 FRET peptide; remark: listed apart in the source

kcat/Km (M^-1s^-1) of plasminogen activation, indirect chromogenic assay [3] | Substance | ED50 80% human plasma (60 min, nM), hemolysis of sensitized sheep erythrocytes [2] | also measured
15400 M⁻¹ s⁻¹ | wild type u-PA (protease domain) with C122S (enzyme) | > 6000 nM | kcat/KM (M^-1s^-1) of Glu-plasminogen activation [1]: 22800 M⁻¹ s⁻¹
403 M⁻¹ s⁻¹ | modified u-PA protease domain F30Y/V38D/Y40H/V41R/L97bA/H99Q/C122S/M157K (enzyme) | 1030 nM | kcat/KM (M^-1s^-1) of Glu-plasminogen activation [1]: 459 M⁻¹ s⁻¹
< 10 M⁻¹ s⁻¹ | modified u-PA protease domain R35W/H37D/R37aP/V38E/T39W/V41R/Y60bA/T97aI/L97bA/H99Q/C122S/Y149R (enzyme) | 196 nM | –
< 10 M⁻¹ s⁻¹ | modified u-PA protease domain F30Y/R35W/R36H/H37E/V38E/T39W/Y40H/V41R/Y60bQ/T97aE/L97bA/H99Q/C122S/Y149K/M157K (enzyme) | 257 nM | –
< 10 M⁻¹ s⁻¹ | modified u-PA protease domain F30Y/R35Y/R36H/H37P/R37aQ/V38E/T39Y/Y40F/V41R/Y60bH/T97aI/L97bA/H99Q/C122S/Y149R/M157K (enzyme) | 173 nM | –

Second part, the substance before the results:

Substance | kcat/Km (M^-1s^-1) of plasminogen activation, indirect chromogenic assay [3] | ED50 80% human plasma (60 min, nM), hemolysis of sensitized sheep erythrocytes [2] | also measured
modified u-PA V38D/L97bA/H99Q/C122S (enzyme) | – | – | kcat/KM (M^-1s^-1) of Glu-plasminogen activation [1]: 1380 M⁻¹ s⁻¹
Fc-u-PA (SEQ ID NO: 987) (Fc fusion) | – | – | Activity (nM EDANS/min/µL sample), expi293 supernatant on 40 µM human C3 FRET peptide (nM EDANS/min/µL sample) [4]: -0.1
modified u-PA C[4]S/F30Y/R35W/R36H/H37E/V38E/T39W/Y40H/V41R/Y60bH/T97aI/L97bA/H99Q/C122S/Y149R/M157K/Q192A (enzyme) | – | – | kcat/KM (M^-1s^-1) of Glu-plasminogen activation [1]: 0.991 M⁻¹ s⁻¹
modified u-PA polypeptide (protease domain) containing the replacements R35Q/H37Y/R37aE/V38E/T39Y/V41R/D60aP/Y60bQ/T97aI/L97bA/H99Q/C122S/Y149R (enzyme) | – | – | EC50 for cleavage of hC3 (residual intact hC3 by AlphaScreen, 1 hour at 37 C) [5]: 19 nM
modified u-PA protease domain F30Y/R35W/R36H/H37N/V38E/T39Y/Y40F/V41R/Y60bS/T97aE/L97bA/H99Q/C122S/Y149K/M157K (enzyme) | – | 220 nM | –
modified u-PA protease domain F30Y/R35Q/R36H/H37G/R37aE/V38E/T39F/Y40F/V41R/D60aP/Y60bS/T97aI/L97bA/H99Q/C122S/Y149R/M157K (enzyme) | – | 220 nM | –
modified u-PA protease domain F30Y/R35Y/R36H/H37K/V38E/T39F/Y40F/V41R/T97aI/L97bA/H99Q/C122S/Y149R/M157K (enzyme) | < 10 M⁻¹ s⁻¹ | 227 nM | –
modified u-PA protease domain F30Y/R35W/R36H/H37P/V38E/T39Y/Y40F/V41R/Y60bS/T97aE/L97bA/H99Q/C122S/Y149K/M157K (enzyme) | – | 185 nM | –
modified u-PA protease domain F30Y/R35W/R36H/H37D/V38E/T39Y/Y40F/V41R/T97aI/L97bA/H99Q/C122S/Y149R/M157K (enzyme) | – | 195 nM | –
modified u-PA protease domain R35W/R36H/H37N/V38E/T39F/Y40F/V41R/T97aI/L97bA/H99Q/C122S/Y149R/M157K/Q192H (enzyme) | – | 208 nM | –
modified u-PA protease domain R35Q/H37Y/R37aE/V38E/T39Y/V41R/D60aT/Y60bT/T97aI/L97bA/H99Q/C122S/Y149R (enzyme) | < 10 M⁻¹ s⁻¹ | 253 nM | –
modified u-PA protease domain R35Q/H37Y/R37aE/V38E/T39Y/V41R/D60aP/Y60bQ/T97aI/L97bA/H99Q/C122S/Y149R (enzyme) | – | – | Enzyme specific activity (nmol/min/nmol), Human C3 FRET Peptide assay (nmol/min/nmol) [6]: 19.7
modified u-PA protease domain R35W/H37P/R37aN/V38E/T39Y/V41R/D60aP/Y60bL/T97aI/L97bA/H99Q/C122S/Y149R (enzyme) | – | 318 nM | –
